# Results from patent publication US20050138675A1, “Method for determining cardiotoxicity” (Pfizer Inc., priority 2003, published 2005).
# Read-outs that look alike come from different tables or passages of the source. Marks after values point to notes of the source that are not given here.
# Legend:
# [1] = tested on: cardiac ventricular tissue; conditions: for number of cardiac tissue genes induced at least 2-fold higher than controls / number of cardiac tissue genes suppressed at least 2-fold lower than control expression levels: acute i.p. DIG 20.0, DOX 30.0, ISO 70.0, LPS 10.0 mg/kg
# From the text: Male Sprague-Dawley rats weighing between 175-220 grams were used for all studies. Animals were purchased from Charles River Laboratories (Wilmington, Mass.) and allowed to acclimate for one week prior to use. All animals were given food and water ad libitum, and housed under a 12-hour light/12-hour dark cycle. The animals were housed in conventional plastic bottom cages (2 animals/cage) with corncob bedding. All dosing with test compounds was a single acute injection by the intraperitoneal route, in normal saline, with a 20×¾″ disposable needle attached to a 1 cc disposable syringe. These animals were euthanized by a 150 mg/kg intraperitoneal injection of Nembutal prior to collection of heart tissue.
# Dose range-finding studies were completed to determine a xenobiotic dose that would produce signs of cardiotoxicity such as elevated serum troponins, creatine kinase isoenzymes, or histo-pathological tissue changes, without causing overt general toxicity. Comprehensive literature reviews were also used to select doses. […] Six or twenty-four hours later, animals were euthanized with a lethal intraperitoneal dose of Nembutal solution. Biopsy punches were used to remove approximately […] of ventricular tissue for subsequent RNA isolation and gene expression analysis. Total RNA was isolated from the samples using a Qiagen RNAeasy protocol (Valencia, Calif.). In this procedure, RNA is captured on a solid phase column, then washed with a series of solutions to purify the sample. In the last step, RNA is eluted from the column with RNAse free water. RNA quality and quantity was then checked with an optical density reading at 260/280 wavelengths, and an aliquot of RNA was run on an RNA denaturing gel. High quality RNA should have an OD 260/280 ratio of 2, and the denaturing gel should show two distinct ribosomal RNA bands.
# Synthesis of double stranded cDNA from the total RNA isolated was the first step, which involves the incorporation of a T7-(dT)24 primer into the sequence, with subsequent second strand synthesis which yields a double stranded template for the in vitro transcription (IVT) reaction. The resulting cDNA was run in an IVT reaction using an Enzo BioArray High Yield RNA transcript labeling kit (Enzo Life Sciences, Inc. Farmingdale, N.Y.), during which a biotin label was incorporated into the complementary RNA (cRNA) sequence. This step also amplified the product by generating approximately 40 transcripts per cDNA substrate. After the IVT reaction, cRNA was fragmented by metallic fragmentation, and a small portion of the sample was run on a 1% agarose gel in order to visualize the fragmentation pattern. The range should be between 35 to 200 bases. Four samples from each group showing the highest purity and quality results were pooled for hybridization onto one Genechip to greatly reduce experimental costs. Genes of interest that are found through the use of GeneChip technology, will then be verified using real time PCR techniques on each individual sample.
# Next, the cRNA was hybridized to the RG U34A GeneChip oligonucleotide array (Affymetrix Inc, Santa Clara, Calif.). An aliquot of the fragmented cRNA was mixed with control components, injected into the array, and the filled array was allowed to incubate at 45° C. for 16 hours in an Affymetrix oven, which rotates the samples continuously during incubation. The next morning, the array was taken from the oven and the sample was removed and frozen at −80° C. for possible future use. That is, in the event of a defective chip, the hybridization solution can be re-used. The array chamber was then filled with a wash buffer, and placed in an automated fluid exchange system. The fluidics station controls the washing and staining of the probe array with the fluorescently labeled streptavidin stain solution and an antibody solution. After the staining process was complete the chips were scanned by an Agilent GeneArray laser scanner (Agilent, Palo Alto, Calif.).
# [2] = tested on: cardiac ventricular tissue; conditions: relative to vehicle control, individual samples n = 4/group, DIG 20, DOX 30, ISO 70, LPS 10 mg/kg i.p.
# From the text: Quantitative real time PCR techniques (Q-PCR) are used to further analyze the genes of interest and are applied to each individual sample, rather than the pooled sample analysis used with the GeneChips. […] Individual RNA samples are reverse transcribed using a poly dT oligonucleotide primer to produce single stranded cDNA. The Primers used, listed in Table 2, were selected using on-line software that optimizes primer selection for product size and favorable Q-PCR reaction conditions (http://frodo.wi.mit.edu/cgi-bin/primer3/primer3_www.cgi). The target sequence was PCR amplified by combining primer pairs in a solution of PCR Master Mix (Promega, San Luis Obispo Calif.). PCR fragments of expected size (as determined by gel electrophoresis) were cloned using a TOPO TA cloning kit (Invitrogen, Carlsbad, Calif.) with subsequent plasmid DNA purification using a OlAprep Spin Miniprep Kit (Qiagen, Valencia, Calif.). […] Single stranded cDNA or plasmid standards were amplified for quantitation using the Quantitect™ SYBR Green PCR kit (Qiagen). […] Each cycle included denaturation at 94° C. for 15 sec, oligonucleotide annealing at 50° C. for 20 sec, product synthesis at 72° C. for 30 sec., and quantitative acquisition at 1-2° C. below the melting temperature of the product. […]
# [3] = 6 hour, relative to vehicle control, pooled n = 4 samples/group, DIG 20, DOX 30, ISO 70, LPS 10 mg/kg i.p.
# [4] = 24 hour, relative to vehicle control, pooled n = 4 samples/group, DIG 20, DOX 30, ISO 70, LPS 10 mg/kg i.p.
substance,measurement,setting,value
lipopolysaccharide [LPS],AA957003 (intercellular calcium-binding protein) Array fold change,[1]; [3],4.00* Fold Change
same,AI176456 (metallothionein) Array fold change,[1]; [3],327.72* Fold Change
same,J02722 (heme oxygenase) Array fold change,[1]; [3],14.69* Fold Change
same,X01118 (gamma-rANP) Array fold change,[1]; [3],0.33* Fold Change
same,X89225 (L-like neutral amino acid transport protein) Array fold change,[1]; [3],2.44* Fold Change
same,number of cardiac tissue genes induced at least 2-fold higher than controls,[1]; 6 hours after treatment,374 genes
same,number of cardiac tissue genes suppressed at least 2-fold lower than control expression levels,[1]; 6 hours after treatment,663 genes
same,AA892801 (EST) Array fold change,[1]; [4],2.58* Fold Change
same,AA899106 (cyclin D2) Array fold change,[1]; [4],0.06* Fold Change
same,AB005743 (fatty acid transporter) Array fold change,[1]; [4],2.15* Fold Change
same,AF016296 (neuropilin) Array fold change,[1]; [4],0.28* Fold Change
same,AI008852 (EST) Array fold change,[1]; [4],3.47* Fold Change
same,AI170776 (GRB2) Array fold change,[1]; [4],2.18* Fold Change
same,D85183 (SHPS-1) Array fold change,[1]; [4],3.70* Fold Change
same,M57276 (leukocyte antigen MRC-OX44) Array fold change,[1]; [4],4.17* Fold Change
same,U14950 (synapse-associated protein 97) Array fold change,[1]; [4],2.19 Fold Change
same,U68272 (interferon gamma receptor) Array fold change,[1]; [4],2.96* Fold Change
same,X52140 (integrin alpha-1) Array fold change,[1]; [4],0.17* Fold Change
same,X71127 (complement protein C1q beta chain) Array fold change,[1]; [4],3.70* Fold Change
same,number of cardiac tissue genes induced at least 2-fold higher than controls,[1]; 24 hours after treatment,279 genes
same,number of cardiac tissue genes suppressed at least 2-fold lower than control expression levels,[1]; 24 hours after treatment,172 genes
same,AA957003 (intercellular calcium-binding protein) Q-PCR ± SD fold change,[2]; 6 hour,8.86 ± 6.16 Fold Change
same,AA892801 (EST) Q-PCR ± SD fold change,[2]; 24 hour,4.41 ± 2.03 Fold Change
